# Biological target: 5-hydroxytryptamine receptor 1A (Rattus norvegicus, UniProt P19327)
# The chains behind the UniProt entries cited, without tags or fusion partners.
# UniProt P19327, whole entry: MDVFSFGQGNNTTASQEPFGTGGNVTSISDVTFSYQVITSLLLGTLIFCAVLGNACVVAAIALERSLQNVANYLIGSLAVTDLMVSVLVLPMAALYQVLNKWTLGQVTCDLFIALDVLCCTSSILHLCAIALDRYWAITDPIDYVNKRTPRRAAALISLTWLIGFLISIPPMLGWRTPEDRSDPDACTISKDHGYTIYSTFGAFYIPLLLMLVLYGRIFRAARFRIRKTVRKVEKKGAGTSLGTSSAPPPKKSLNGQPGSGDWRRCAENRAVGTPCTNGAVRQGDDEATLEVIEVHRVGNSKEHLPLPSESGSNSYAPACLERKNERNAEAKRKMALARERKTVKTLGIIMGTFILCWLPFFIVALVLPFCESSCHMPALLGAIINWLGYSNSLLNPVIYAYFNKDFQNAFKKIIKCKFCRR
# Assay: Agonist activity at 5HT1A receptor in CRL:CD(SD)BR-COBS rat hippocampus assessed as increase in [35S]GTPgammaS binding
# Type: functional, tissue-based
# How it was run: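 Rat hippocampal membranes (200 µg protein/sample), washed in 50 mM Tris·HCl and resuspended in pH 7.7 Tris with 10 µM pargyline and 4 mM CaCl2. Graded drug concentrations were applied, with 20 min preincubation at 37 °C, then 45 min at 37 °C with 0.1 nM [35S]GTPγS. Nonspecific binding was set with 10 µM GTPγS, followed by GF/B filtration. EC50 and Emax (vs 5-HT) came from curve fitting. Mean ± SD, three experiments.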
compound,measurement,value
NCCc1c[nH]c2ccc(O)cc12 [SEROTONIN],EC50,323 nM

# From ChEMBL document CHEMBL1155805, “Synthesis of new arylpiperazinylalkylthiobenzimidazole, benzothiazole, or benzoxazole derivatives as potent and selective 5-HT1A serotonin receptor ligands” (J Med Chem, 2008)
